Assay: Population pharmacokinetic model of ivermectin in healthy Thai volunteers
Format: in vivo, human
Settings: single oral 200 µg/kg, centred on 55 kg
Protocol: Frequent ivermectin plasma concentrations were collected in 23 healthy Thai volunteers after a standard 200 µg/kg dose. Ivermectin concentrations were transformed into their natural logarithms and characterized using nonlinear mixed-effects modelling in NONMEM version.7.3 (Icon Development Solution, Ellicott City, MD, USA). The first-order conditional estimation method with interaction was used throughout model development. Model diagnostics and automation were performed using Xpose version 4.0 [25], Pirana and Pearl-speaks-NONMEM (PsN; version 3.6.0). The objective function value (OFV; calculated by NONMEM as proportional to −2 × loglikelihood of data) was used to discriminate between hierarchical models. […] Models were assessed using standard goodness-of-fit and simulation-based diagnostics (i.e. numerical and visual predictive checks using 2000 simulations). The robustness of the final model was evaluated by bootstrapping (n = 1000).
Different disposition models (one-, two- and three-compartment models) and absorption models (first-order and transit models) were evaluated to describe the pharmacokinetic structural model of ivermectin. […] The effect of body size was evaluated using an allometric function (centred on the medium trial weight of 55 kg), scaling clearances with an exponent of ¾ and volumes with an exponent of 1. […]

ivermectin
VC/F apparent volume of distribution of central compartment, population estimate (%RSE): 115 (4.38) l | VP/F apparent volume of distribution of peripheral compartment, population estimate (%RSE): 157 (6.59) l

— PMC5501099, “Ivermectin susceptibility and sporontocidal effect in Greater Mekong Subregion Anopheles” (Malaria Journal, 2017)
